According to patent US11230717B2, “Plants having increased tolerance to herbicides” (BASF SE, priority 2013, dated 2022):
Several values for one entry are separate records, joined by “and”; a condition that tells them apart may be missing. Identical values can stand only once.

Chains of the proteins cited; added tags and fusions are not shown.
UniProt P93836, whole entry F381L: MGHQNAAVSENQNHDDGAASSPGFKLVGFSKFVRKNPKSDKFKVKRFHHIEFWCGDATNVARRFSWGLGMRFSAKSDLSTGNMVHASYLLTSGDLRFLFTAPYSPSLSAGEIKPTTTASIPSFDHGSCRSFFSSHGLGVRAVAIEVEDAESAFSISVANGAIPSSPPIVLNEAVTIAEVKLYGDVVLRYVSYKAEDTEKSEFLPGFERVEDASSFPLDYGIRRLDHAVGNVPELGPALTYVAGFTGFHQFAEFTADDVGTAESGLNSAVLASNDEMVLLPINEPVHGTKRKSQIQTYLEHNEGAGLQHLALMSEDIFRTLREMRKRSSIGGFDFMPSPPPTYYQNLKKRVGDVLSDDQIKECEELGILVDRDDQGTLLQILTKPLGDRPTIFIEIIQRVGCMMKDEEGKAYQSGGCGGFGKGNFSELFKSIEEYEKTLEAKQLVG
UniProt P93836, whole entry M335H/P336A: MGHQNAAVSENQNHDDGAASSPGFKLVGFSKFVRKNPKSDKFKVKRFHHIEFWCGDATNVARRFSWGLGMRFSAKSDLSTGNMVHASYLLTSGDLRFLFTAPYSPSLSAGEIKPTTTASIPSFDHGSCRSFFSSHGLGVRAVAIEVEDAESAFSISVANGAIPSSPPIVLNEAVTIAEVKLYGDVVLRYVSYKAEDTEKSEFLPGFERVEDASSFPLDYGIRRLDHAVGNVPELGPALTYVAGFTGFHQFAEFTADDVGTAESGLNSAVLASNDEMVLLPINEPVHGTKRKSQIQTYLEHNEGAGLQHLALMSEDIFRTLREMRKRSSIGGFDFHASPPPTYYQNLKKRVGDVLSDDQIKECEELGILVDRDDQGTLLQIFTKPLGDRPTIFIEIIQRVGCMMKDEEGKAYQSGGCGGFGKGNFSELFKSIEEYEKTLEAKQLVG
UniProt P93836, whole entry M335H/P336G: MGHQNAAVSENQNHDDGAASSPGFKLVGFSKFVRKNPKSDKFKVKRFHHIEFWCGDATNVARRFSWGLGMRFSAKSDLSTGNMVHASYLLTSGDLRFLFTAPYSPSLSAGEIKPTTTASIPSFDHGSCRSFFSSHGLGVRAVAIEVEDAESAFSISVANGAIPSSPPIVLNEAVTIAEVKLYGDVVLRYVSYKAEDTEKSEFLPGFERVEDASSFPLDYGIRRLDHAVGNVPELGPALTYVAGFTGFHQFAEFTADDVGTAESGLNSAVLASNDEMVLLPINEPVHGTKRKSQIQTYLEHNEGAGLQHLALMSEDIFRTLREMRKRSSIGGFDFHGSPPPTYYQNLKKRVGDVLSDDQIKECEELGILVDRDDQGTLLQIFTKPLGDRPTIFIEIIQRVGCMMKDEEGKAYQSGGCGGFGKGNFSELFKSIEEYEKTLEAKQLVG
UniProt P93836, whole entry M335H/P336G/E363Q: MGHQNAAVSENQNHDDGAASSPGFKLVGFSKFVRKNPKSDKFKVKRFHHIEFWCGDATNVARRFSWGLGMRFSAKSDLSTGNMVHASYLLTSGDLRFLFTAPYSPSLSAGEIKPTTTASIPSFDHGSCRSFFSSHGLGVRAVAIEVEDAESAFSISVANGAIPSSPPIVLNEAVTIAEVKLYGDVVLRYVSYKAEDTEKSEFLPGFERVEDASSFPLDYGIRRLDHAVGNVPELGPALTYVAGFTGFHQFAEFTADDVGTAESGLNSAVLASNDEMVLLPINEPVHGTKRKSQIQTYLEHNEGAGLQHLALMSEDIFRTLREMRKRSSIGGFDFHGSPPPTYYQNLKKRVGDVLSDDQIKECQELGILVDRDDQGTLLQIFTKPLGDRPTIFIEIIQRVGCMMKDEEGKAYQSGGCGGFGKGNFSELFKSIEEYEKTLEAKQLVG
UniProt O48604, whole entry R146V/R147D/R148G/A164G/F377L: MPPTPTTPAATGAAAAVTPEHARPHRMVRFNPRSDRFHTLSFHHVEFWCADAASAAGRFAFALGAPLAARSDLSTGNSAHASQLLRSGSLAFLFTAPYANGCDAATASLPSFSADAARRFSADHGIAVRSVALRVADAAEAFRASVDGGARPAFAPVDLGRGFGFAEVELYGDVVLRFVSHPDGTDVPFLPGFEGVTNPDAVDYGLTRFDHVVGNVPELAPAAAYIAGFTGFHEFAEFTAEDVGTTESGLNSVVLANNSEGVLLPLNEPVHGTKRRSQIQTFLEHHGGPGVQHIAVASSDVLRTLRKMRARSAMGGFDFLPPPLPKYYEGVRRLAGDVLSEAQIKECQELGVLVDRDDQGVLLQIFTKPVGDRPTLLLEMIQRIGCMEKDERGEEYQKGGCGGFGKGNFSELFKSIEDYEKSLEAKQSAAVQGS
UniProt O48604, whole entry R146V/R147D/R148G/A164G/F404L: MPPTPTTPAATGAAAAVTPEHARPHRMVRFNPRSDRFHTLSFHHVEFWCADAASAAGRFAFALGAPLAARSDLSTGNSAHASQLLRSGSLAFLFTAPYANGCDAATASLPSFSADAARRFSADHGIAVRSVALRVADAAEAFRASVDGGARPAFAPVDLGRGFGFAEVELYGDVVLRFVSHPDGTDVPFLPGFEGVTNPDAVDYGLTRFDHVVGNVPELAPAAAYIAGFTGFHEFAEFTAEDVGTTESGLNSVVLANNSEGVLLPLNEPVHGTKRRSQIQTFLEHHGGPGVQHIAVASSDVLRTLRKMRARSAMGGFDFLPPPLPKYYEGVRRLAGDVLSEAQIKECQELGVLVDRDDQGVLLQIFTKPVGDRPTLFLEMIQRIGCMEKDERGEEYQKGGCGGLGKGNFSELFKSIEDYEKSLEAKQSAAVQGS
UniProt O48604, whole entry R146V/R147D/R148G/A164G/L250M: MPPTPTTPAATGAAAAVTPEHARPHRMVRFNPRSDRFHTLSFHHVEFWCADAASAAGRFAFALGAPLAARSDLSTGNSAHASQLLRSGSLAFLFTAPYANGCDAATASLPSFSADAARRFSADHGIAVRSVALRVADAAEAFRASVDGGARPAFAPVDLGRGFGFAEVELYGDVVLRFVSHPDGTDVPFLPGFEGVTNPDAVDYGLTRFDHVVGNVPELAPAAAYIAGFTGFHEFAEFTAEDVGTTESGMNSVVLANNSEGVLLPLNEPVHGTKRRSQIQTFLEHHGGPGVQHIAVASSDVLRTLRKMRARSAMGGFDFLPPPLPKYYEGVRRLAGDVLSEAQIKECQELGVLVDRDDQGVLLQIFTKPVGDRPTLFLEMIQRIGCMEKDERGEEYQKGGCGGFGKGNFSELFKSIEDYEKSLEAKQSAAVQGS
UniProt O48604, whole entry R146V/R147D/R148G/A164G/L320H: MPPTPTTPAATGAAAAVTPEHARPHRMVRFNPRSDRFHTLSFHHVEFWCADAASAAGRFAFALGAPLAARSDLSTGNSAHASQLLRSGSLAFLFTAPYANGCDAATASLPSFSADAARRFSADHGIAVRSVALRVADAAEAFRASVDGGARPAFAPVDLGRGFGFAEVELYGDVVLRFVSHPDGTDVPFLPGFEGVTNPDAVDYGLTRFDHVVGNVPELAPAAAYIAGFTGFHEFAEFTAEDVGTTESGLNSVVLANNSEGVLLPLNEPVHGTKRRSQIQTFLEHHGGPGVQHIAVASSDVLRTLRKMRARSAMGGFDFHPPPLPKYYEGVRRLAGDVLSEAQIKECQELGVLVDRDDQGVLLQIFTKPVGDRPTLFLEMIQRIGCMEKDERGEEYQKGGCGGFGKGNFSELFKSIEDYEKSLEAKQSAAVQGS
UniProt O48604, whole entry R146V/R147D/R148G/A164G/L320H/P321A: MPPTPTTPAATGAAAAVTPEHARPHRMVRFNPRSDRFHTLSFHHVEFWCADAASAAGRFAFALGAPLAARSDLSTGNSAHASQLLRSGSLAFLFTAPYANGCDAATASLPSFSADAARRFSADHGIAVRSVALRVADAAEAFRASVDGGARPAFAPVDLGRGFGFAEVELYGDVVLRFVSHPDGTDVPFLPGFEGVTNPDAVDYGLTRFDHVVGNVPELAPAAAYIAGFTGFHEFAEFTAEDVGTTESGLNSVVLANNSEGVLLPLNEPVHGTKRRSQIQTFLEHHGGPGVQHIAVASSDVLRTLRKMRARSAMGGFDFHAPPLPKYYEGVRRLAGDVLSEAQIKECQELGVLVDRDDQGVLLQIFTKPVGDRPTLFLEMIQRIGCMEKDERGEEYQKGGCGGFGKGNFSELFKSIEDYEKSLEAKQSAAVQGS
UniProt O48604, whole entry R146V/R147D/R148G/A164G/L320N: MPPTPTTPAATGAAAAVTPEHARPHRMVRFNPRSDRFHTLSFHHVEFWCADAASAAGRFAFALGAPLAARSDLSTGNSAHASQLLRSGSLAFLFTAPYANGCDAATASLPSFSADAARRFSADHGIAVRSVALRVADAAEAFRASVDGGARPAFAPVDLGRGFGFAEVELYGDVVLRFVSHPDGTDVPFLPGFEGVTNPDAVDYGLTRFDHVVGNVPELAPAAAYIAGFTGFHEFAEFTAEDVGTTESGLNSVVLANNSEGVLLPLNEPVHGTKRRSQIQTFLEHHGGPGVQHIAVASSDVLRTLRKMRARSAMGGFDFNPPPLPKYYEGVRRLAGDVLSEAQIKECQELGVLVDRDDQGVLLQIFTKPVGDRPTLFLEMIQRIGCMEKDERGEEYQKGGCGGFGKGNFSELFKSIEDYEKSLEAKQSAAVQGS
UniProt O48604, whole entry R146V/R147D/R148G/A164G/L320N/P321R/L353M: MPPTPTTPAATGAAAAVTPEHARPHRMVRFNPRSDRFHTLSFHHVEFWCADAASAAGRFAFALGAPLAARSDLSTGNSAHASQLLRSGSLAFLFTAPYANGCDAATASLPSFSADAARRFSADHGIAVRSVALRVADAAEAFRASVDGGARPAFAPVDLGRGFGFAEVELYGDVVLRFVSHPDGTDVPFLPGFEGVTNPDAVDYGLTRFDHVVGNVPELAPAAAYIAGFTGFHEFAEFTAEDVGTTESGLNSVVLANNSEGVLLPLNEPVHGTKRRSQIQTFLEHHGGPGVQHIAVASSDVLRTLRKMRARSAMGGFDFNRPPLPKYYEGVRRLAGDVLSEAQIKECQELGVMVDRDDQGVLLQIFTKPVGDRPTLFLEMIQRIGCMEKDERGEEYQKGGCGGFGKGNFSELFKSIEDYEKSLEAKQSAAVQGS
UniProt O48604, whole entry R146V/R147D/R148G/A164G/L320Q/P321R/L353M: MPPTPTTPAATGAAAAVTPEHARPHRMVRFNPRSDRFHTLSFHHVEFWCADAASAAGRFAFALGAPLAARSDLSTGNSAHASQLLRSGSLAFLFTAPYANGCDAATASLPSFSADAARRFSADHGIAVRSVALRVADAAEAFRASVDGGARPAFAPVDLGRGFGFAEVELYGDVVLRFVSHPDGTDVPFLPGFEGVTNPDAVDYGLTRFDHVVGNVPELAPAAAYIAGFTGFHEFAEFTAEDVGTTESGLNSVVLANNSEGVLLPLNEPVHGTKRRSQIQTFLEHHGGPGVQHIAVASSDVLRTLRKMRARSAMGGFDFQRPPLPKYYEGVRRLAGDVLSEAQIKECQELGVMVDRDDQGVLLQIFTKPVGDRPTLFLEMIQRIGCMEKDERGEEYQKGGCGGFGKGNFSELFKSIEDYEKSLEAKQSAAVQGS
UniProt O48604, whole entry R146V/R147D/R148G/A164G/R309K: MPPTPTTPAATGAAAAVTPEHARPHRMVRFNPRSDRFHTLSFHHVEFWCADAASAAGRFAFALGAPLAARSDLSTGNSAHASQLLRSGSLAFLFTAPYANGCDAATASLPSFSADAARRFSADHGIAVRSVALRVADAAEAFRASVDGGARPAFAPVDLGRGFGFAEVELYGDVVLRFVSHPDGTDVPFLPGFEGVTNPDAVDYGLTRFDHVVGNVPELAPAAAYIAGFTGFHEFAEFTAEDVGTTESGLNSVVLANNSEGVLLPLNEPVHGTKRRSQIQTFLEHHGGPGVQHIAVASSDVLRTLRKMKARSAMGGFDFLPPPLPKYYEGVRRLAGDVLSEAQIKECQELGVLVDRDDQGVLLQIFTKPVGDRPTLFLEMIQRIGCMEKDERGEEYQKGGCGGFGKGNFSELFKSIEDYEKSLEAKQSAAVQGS
UniProt O48604, whole entry R146V/R147D/R148G/A164G/S252T: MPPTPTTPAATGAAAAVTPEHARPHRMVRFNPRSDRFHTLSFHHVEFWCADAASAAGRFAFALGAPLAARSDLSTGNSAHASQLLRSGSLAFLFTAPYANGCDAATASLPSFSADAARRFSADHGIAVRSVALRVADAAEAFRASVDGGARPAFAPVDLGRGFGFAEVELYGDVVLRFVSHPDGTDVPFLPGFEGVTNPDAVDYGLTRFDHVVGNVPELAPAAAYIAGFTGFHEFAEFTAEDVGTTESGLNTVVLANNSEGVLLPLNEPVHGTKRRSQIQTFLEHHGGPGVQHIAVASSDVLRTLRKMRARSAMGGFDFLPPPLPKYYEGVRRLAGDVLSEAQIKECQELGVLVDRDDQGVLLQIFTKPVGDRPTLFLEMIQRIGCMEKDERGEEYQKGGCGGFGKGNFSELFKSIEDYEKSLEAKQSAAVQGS

Assays:
[1] = target: T1, Arabidopsis HPPD variant F381L (Arabidopsis thaliana, UniProt P93836, F381L); assay: HPPD activity assay, in vitro characterization of HPPD mutants; type: biochemical; details: normalized to wildtype
T1 construct: His6 (N); made in house; host or cells: E. coli BL21 (DE3)
Method: (§1) HPPD produces homogentisic acid and CO2 from 4-hydroxyphenylpyruvate (4-HPP) and O2. The activity assay for HPPD is based on the analysis of homogentisic acid by reversed phase HPLC.
(§2) The assay mixture can contain 150 mM potassium phosphate buffer pH 7.0, 50 mM L-ascorbic acid, 100 μM Catalase (Sigma-Aldrich), 1 μM FeSO4 and 0.2 units of purified HPPD enzyme in a total volume of 505 μl. 1 unit is defined as the amount of enzyme that is required to produce 1 nmol of HGA per minute at 20° C.
(§3) After a preincubation of 30 min the reaction is started by adding 4-HPP to a final concentration of 0.05 mM. The reaction is allowed to proceed for 45 min at room temperature. The reaction is stopped by the addition of 50 μl of 4.5 M phosphoric acid. The sample is filtered using a […] pore size PVDF filtration device.
(§4) 5 μl of the cleared sample is analyzed on an UPLC HSS T3 column (particle size 1.8 μm, dimensions 2,1×50 mm; Waters) by isocratic elution using 90% 20 mM NaH2PO4 pH 2.2, 10% methanol (v/v).
(§5) HGA is detected electrochemically at 750 mV (mode: DC; polarity: positive) and quantified by integrating peak areas (Empower software; Waters).
(§6) Inhibitors are dissolved in DMSO (dimethylsulfoxide) to a concentration of 0.5 mM. From this stock solution serial five-fold dilutions are prepared in DMSO, which are used in the assay. The respective inhibitor solution accounts for 1% of the assay volume. […] Activities are normalized by setting the uninhibited enzyme activity to 100%. IC50 values are calculated using non-linear regression.
(§7) Purified, mutant HPPD enzymes are obtained by the methods described above. Dose response and kinetic measurements are carried out using the described HPPD activity assay. Apparent michaelis constants (Km) and maximal reaction velocities (Vmax) are calculated by non-linear regression with the software GraphPad Prism 5 (GraphPad Software, La Jolla, USA) using a substrate inhibition model. […] Weighted means (by standard error) of Km and IC50 values are calculated from at least three independent experiments.
(§8) Field performance of the optimized HPPD enzyme, which is used as a herbicide tolerance trait may depend not only on its lack of sensitivity towards HPPD inhibiting herbicides but also on its activity. To assess the potential performance of a herbicide tolerance trait a tolerance index (TI) is calculated using the following formula: […]

[2] = target: T2, Arabidopsis HPPD variant M335H, P336A (Arabidopsis thaliana, UniProt P93836, M335H/P336A); assay: as above; type: biochemical; details: normalized to wildtype
T2 construct: His6 (N); made in house; host or cells: E. coli BL21 (DE3)
Method: as §1, §2, §3, §4, §5, §6, §7, §8

[3] = target: T3, Arabidopsis HPPD variant M335H, P336G (Arabidopsis thaliana, UniProt P93836, M335H/P336G); assay: as above; type: biochemical; details: normalized to wildtype
T3 construct: His6 (N); made in house; host or cells: E. coli BL21 (DE3)
Method: as §1, §2, §3, §4, §5, §6, §7, §8

[4] = target: T4, Arabidopsis HPPD variant M335H, P336G, E363Q (Arabidopsis thaliana, UniProt P93836, E363Q/M335H/P336G); assay: as above; type: biochemical; details: normalized to wildtype
T4 construct: His6 (N); made in house; host or cells: E. coli BL21 (DE3)
Method: as §1, §2, §3, §4, §5, §6, §7, §8

[5] = target: T5, Hordeum HPPD variant F377L (Hordeum vulgare, UniProt O48604, A164G/F377L/R146V/R147D/R148G); assay: as above; type: biochemical; details: normalized to wild-type
T5 construct: His (N); made in house; host or cells: E. coli BL21 (DE3)
Method: as §1, §2, §3, §4, §5, §6, §7, §8

[6] = target: T6, Hordeum HPPD variant F404L (Hordeum vulgare, UniProt O48604, A164G/F404L/R146V/R147D/R148G); assay: as above; type: biochemical; details: normalized to wild-type
T6 construct: His (N); made in house; host or cells: E. coli BL21 (DE3)
Method: as §1, §2, §3, §4, §5, §6, §7, §8

[7] = target: T7, Hordeum HPPD variant L250M (Hordeum vulgare, UniProt O48604, A164G/L250M/R146V/R147D/R148G); assay: as above; type: biochemical; details: normalized to wild-type
T7 construct: His (N); made in house; host or cells: E. coli BL21 (DE3)
Method: as §1, §2, §3, §4, §5, §6, §7, §8

[8] = target: T8, Hordeum HPPD variant L320H (Hordeum vulgare, UniProt O48604, A164G/L320H/R146V/R147D/R148G); assay: as above; type: biochemical; details: normalized to wild-type
T8 construct: His (N); made in house; host or cells: E. coli BL21 (DE3)
Method: as §1, §2, §3, §4, §5, §6, §7, §8

[9] = target: T9, Hordeum HPPD variant L320H, P321A (Hordeum vulgare, UniProt O48604, L320H/P321A); assay: as above; type: biochemical; details: normalized to wild-type
T9 construct: His (N); made in house; host or cells: E. coli BL21 (DE3)
Method: as §1, §2, §3, §4, §5, §6, §7, §8

[10] = target: T10, Hordeum HPPD variant L320N (Hordeum vulgare, UniProt O48604, A164G/L320N/R146V/R147D/R148G); assay: as above; type: biochemical; details: normalized to wild-type
T10 construct: His (N); made in house; host or cells: E. coli BL21 (DE3)
Method: as §1, §2, §3, §4, §5, §6, §7, §8

[11] = target: T11, Hordeum HPPD variant L353M, P321R, L320N (Hordeum vulgare, UniProt O48604, L320N/L353M/P321R); assay: as above; type: biochemical; details: normalized to wild-type
T11 construct: His (N); made in house; host or cells: E. coli BL21 (DE3)
Method: as §1, §2, §3, §4, §5, §6, §7, §8

[12] = target: T12, Hordeum HPPD variant L353M, P321R, L320Q (Hordeum vulgare, UniProt O48604, L320Q/L353M/P321R); assay: as above; type: biochemical; details: normalized to wild-type
T12 construct: His (N); made in house; host or cells: E. coli BL21 (DE3)
Method: as §1, §2, §3, §4, §5, §6, §7, §8

[13] = target: T13, Hordeum HPPD variant R309K (Hordeum vulgare, UniProt O48604, A164G/R146V/R147D/R148G/R309K); assay: as above; type: biochemical; details: normalized to wild-type
T13 construct: His (N); made in house; host or cells: E. coli BL21 (DE3)
Method: as §1, §2, §3, §4, §5, §6, §7, §8

[14] = target: T14, Hordeum HPPD variant S252T (Hordeum vulgare, UniProt O48604, A164G/R146V/R147D/R148G/S252T); assay: as above; type: biochemical; details: normalized to wild-type
T14 construct: His (N); made in house; host or cells: E. coli BL21 (DE3)
Method: as §1, §2, §3, §4, §5, §6, §7, §8

[15] = system: transgenic Arabidopsis plants; assay: Greenhouse testing of transgenic Arabidopsis plants (T2), herbicide spray test; type: in vivo, Arabidopsis thaliana; details: Arabidopsis expressing SEQ ID NO:2 with L320H
Method: Transgenic plants expressing heterologous HPPD or HST enzymes are tested for tolerance against HPPD-inhibiting herbicides in greenhouse experiments.
For post emergence treatment, the test plants are first grown to a height of 3 to 15 cm, depending on the plant habit, and only then treated with the herbicides. For this purpose, the test plants are either sown directly and grown in the same containers, or they are first grown separately and transplanted into the test containers a few days prior to treatment. For testing of T0 plants, cuttings can be used. In the case of soybean plants, an optimal shoot for cutting is about 7.5 to 10 cm tall, with at least two nodes present. Each cutting is taken from the original transformant (mother plant) and dipped into rooting hormone powder (indole-3-butyric acid, IBA). The cutting is then placed in oasis wedges inside a bio-dome. Wild type cuttings are also taken simultaneously to serve as controls. The cuttings are kept in the bio-dome for 5-7 days and then transplanted to pots and then acclimated in the growth chamber for two more days. Subsequently, the cuttings are transferred to the greenhouse, acclimated for approximately 4 days, and then subjected to spray tests as indicated.
Additionally, T1 and T2 transgenic Arabidopsis plants can be tested for improved tolerance to HPPD-inhibiting herbicides in a greenhouse studies. […]

CSc1c(Cl)cc(F)c(C(=O)Nc2nnnn2C)c1Cl [Inhibitor 2, 2,4-dichloro-6-fluoro-3-methylsulfanyl-N-(1-methyltetrazol-5-yl)benzamide]
Normalized tolerance index (TI) [1]: 0.8 | Normalized tolerance index (TI) [2]: 0.8 | Normalized tolerance index (TI) [3]: 0.9 | Normalized tolerance index (TI) [4]: 1.1 | Normalized tolerance index (TI) [5]: 2.1 | Normalized tolerance index (TI) [6]: 0.9 | Normalized tolerance index (TI) [7]: 0.8 | Normalized tolerance index (TI) [8]: 4 and 4.5 | Normalized tolerance index (TI) [9]: 3.6 | Normalized tolerance index (TI) [10]: 0.6 | Normalized tolerance index (TI) [11]: 1.2 | Normalized tolerance index (TI) [12]: 3 | Normalized tolerance index (TI) [13]: 2.1 | Normalized tolerance index (TI) [14]: 7.3 | resistance compared to untransformed wild-type plants [15]: more resistant
